Experimental data reported in US8791123B2, “Substituted pyrazolo[1,5-a]pyrimidine compounds as Trk kinase inhibitors” (Array Biopharma, Inc., priority 2009, dated 2014).
Like-named read-outs stand apart in the source and are kept apart here.

By UniProt entry, the sequences of proteins in these tests, tags left out. Residues count along the entry.
UniProt O60674, 808-1132: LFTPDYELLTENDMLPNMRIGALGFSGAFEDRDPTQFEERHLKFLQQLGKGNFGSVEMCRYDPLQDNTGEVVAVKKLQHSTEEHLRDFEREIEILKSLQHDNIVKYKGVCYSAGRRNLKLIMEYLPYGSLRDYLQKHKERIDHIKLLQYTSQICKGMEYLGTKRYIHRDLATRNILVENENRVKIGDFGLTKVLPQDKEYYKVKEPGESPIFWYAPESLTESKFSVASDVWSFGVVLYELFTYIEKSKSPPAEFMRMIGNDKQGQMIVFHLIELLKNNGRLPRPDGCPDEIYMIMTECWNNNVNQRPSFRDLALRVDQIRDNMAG
UniProt P04629, 440-796: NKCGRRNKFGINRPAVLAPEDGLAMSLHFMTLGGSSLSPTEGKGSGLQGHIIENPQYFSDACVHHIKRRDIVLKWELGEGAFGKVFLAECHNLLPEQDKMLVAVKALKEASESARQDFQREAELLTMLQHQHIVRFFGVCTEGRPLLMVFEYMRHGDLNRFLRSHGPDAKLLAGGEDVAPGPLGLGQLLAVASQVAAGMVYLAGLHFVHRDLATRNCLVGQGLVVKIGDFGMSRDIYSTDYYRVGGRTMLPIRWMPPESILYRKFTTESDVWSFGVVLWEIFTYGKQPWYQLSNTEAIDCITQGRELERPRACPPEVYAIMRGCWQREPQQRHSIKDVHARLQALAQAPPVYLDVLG

Key:
Human Jak2 kinase domain = Human Jak2 kinase domain (Homo sapiens (Human), UniProt O60674); assay: Jak2 Inhibition Assay (Omnia kinase assay); type: biochemical
Experimental: The assays described in Examples C, D, E and F for the determination of JAK1, JAK2, JAK3 and Tyk2 kinase activity, respectively, utilized the Omnia® Kinase fluorescence peptide substrate-based technology (Invitrogen). […] The reactions were therefore read at excitation 360 nm and emission was measured at 485 nm every 50 seconds for 45 minutes using a PerkinElmer EnVision Multilabel Plate Reader.
The final buffer conditions for each of the JAK1, JAK2, JAK3 and Tyk2 assays were as follows: 25 mM HEPES, pH 7.4, 10 mM MgCl2, 0.01% Triton X-100 and 1 mM DTT.
Two-μL aliquots of these were transferred to a fresh plate for a ten-fold intermediate dilution with assay buffer. Five-μL aliquots of the diluted compounds were then transferred to 20-μL of assay mixtures described in Examples C, D, E and F for a final concentration of DMSO of 2%. […] For each plate, percent of control (POC) values were calculated for each well according to the following equation:
[formula] • where • Xmax=Average Uninhibited Controls • Xmin=Average Background IC50's were estimated from the POC's using a standard 4-parameter logistic model:
[formula] • where • A=Minimum Y (Bottom Asymptote) • B=Maximum Y (Top Asymptote) • C=EC50 • D=Slope Factor • X=Compound Concentration (nM) • Y=POC
The IC50 is defined as the concentration of inhibitor at which the POC equals 50 for the fitted curve.
Compounds of Formula I were screened for their ability to inhibit Jak2 using the general enzyme inhibition assay method, in which the assay mixture contained 500 μM ATP, 10 μM Omnia® Y7 peptide (Catalog # IVGN KNZ3071C, Invitrogen Corporation, Carlsbad, Calif.) and 4 nM Jak2 in a total volume of 20 μL. Human Jak2 kinase domain comprising amino acids 808-1132 was purchased from Invitrogen Corporation, Carlsbad, Calif. (catalog # IVGN PV4210).

[1] = target: TrkA (histidine-tagged recombinant human TrkA, cytoplasmic domain) (Homo sapiens (Human), UniProt P04629); assay: TrkA ELISA Assay; type: biochemical
Experimental: An enzyme-linked immunosorbant assay (ELISA) was used to assess TrkA kinase activity in the presence of inhibitors. Immulon 4HBX 384-well microtiter plates (Thermo part #8755) were coated with a 0.025 mg/mL solution of poly (Glu, Ala, Tyr; 6:3:1; Sigma P3899). […] The reaction mixture was removed from the plate by washing with PBS containing 0.1% (v/v) Tween 20. The phosphorylated reaction product was detected using 0.2 μg/mL of a phosphotyrosine specific monoclonal antibody (clone PY20) conjugated to horseradish peroxidase in conjunction with the TMB Peroxidase Substrate System (KPL). After the addition of 1M phosphoric acid, the chromogenic substrate color intensity was quantitated via absorbance at 450 nm.

[2] = Table 2, 500 μM ATP, read-out: Jak2 IC50
[3] = Table 1, 500 μM ATP, >1000 nM when >50% inhibition not observed at 1000 nM, read-out: Jak2 Enzyme IC50
[4] = Table 1, ELISA, 500 μM ATP, read-out: TrkA Enzyme IC50

Structure (SMILES)	IC50 (Human Jak2 kinase domain; read-out: Jak2 Enzyme IC50) [nM]	IC50 [1, 4] [nM]	further results
CCc1ncc(F)cc1[C@H]1CCCN1c1ccn2ncc(C(=O)N[C@H]3CC[C@H](O)CC3)c2n1 [Example 199, 5-((R)-2-(2-ethyl-5-fluoropyridin-3-yl)pyrrolidin-1-yl)-N-((trans)-4-hydroxycyclohexyl)pyrazolo[1,5-a]pyrimidine-3-carboxamide]	> 1000		
C[C@H](NC(=O)c1cnn2ccc(N3[C@H](CO)CC[C@@H]3c3cncc(F)c3)nc12)C(F)(F)F [Example 213, 5-((2R,5S)-2-(5-fluoropyridin-3-yl)-5-(hydroxymethyl)pyrrolidin-1-yl)-N—((S)-1,1,1-trifluoropropan-2-yl)pyrazolo[1,5-a]pyrimidine-3-carboxamide]	> 1000		
O=C(O)C1CCN(C(=O)c2cnn3ccc(N4CCC[C@@H]4c4cc(F)ccc4F)nc23)CC1 [Example 11, (R)-1-(5-(2-(2,5-difluorophenyl)pyrrolidin-1-yl)pyrazolo[1,5-a]pyrimidine-3-carbonyl)piperidine-4-carboxylic acid]	> 1000		
CC(C)(C#N)NC(=O)c1cnn2ccc(N3CCC[C@@H]3c3cncc(F)c3)nc12 [Example 69, (R)—N-(2-cyanopropan-2-yl)-5-(2-(5-fluoropyridin-3-yl)pyrrolidin-1-yl)pyrazolo[1,5-a]pyrimidine-3-carboxamide]	> 1000		
Cc1ncc(F)cc1[C@H]1CCCN1c1ccn2ncc(C(=O)N[C@H]3CC[C@H](O)CC3)c2n1 [Example 194, 5-((R)-2-(5-fluoro-2-methylpyridin-3-yl)pyrrolidin-1-yl)-N-((trans)-4-hydroxycyclohexyl)pyrazolo[1,5-a]pyrimidine-3-carboxamide]	> 1000		IC50 (Human Jak2 kinase domain; [2]): > 1000 nM
Cc1ncc(F)cc1[C@H]1CCCN1c1ccn2ncc(C(=O)N[C@H]3CC[C@@H](O)CC3)c2n1 [Example 195, 5-((R)-2-(5-fluoro-2-methylpyridin-3-yl)pyrrolidin-1-yl)-N-((cis)-4-hydroxycyclohexyl)pyrazolo[1,5-a]pyrimidine-3-carboxamide]	> 1000		
CC(CO)(CO)NC(=O)c1cnn2ccc(N3CCC[C@@H]3c3cc(F)ccc3F)nc12 [Example 60, (R)-5-(2-(2,5-difluorophenyl)pyrrolidin-1-yl)-N-(1,3-dihydroxy-2-methylpropan-2-yl)pyrazolo[1,5-a]pyrimidine-3-carboxamide]			IC50 (Human Jak2 kinase domain; [3]): > 1000 nM
C[C@@H](NC(=O)c1cnn2ccc(N3[C@H](CO)CC[C@@H]3c3cncc(F)c3)nc12)C(F)(F)F [Example 212, 5-((2R,5S)-2-(5-fluoropyridin-3-yl)-5-(hydroxymethyl)pyrrolidin-1-yl)-N—((R)-1,1,1-trifluoropropan-2-yl)pyrazolo[1,5-a]pyrimidine-3-carboxamide]	> 1000		
C[C@@H](NC(=O)c1cnn2ccc(N3CCC[C@@H]3c3cc(F)cn(C)c3=O)nc12)C1CC1 [Example 235, N-((R)-1-cyclopropylethyl)-5-((R)-2-(5-fluoro-1-methyl-2-oxo-1,2-dihydropyridin-3-yl)pyrrolidin-1-yl)pyrazolo[1,5-a]pyrimidine-3-carboxamide]		2.8	
NS(=O)(=O)N1CCC(NC(=O)c2cnn3ccc(N4CCC[C@@H]4c4cc(F)ccc4F)nc23)CC1 [Example 45, (R)-5-(2-(2,5-difluorophenyl)pyrrolidin-1-yl)-N-(1-sulfamoylpiperidin-4-yl)pyrazolo[1,5-a]pyrimidine-3-carboxamide]		1.4	
Cn1cc(F)cc([C@H]2CCCN2c2ccn3ncc(C(=O)N[C@H]4CC[C@H](O)CC4)c3n2)c1=O [Example 238, 5-((R)-2-(5-fluoro-1-methyl-2-oxo-1,2-dihydropyridin-3-yl)pyrrolidin-1-yl)-N-((trans)-4-hydroxycyclohexyl)pyrazolo[1,5-a]pyrimidine-3-carboxamide]	499	1.9	
C[C@H](NC(=O)c1cnn2ccc(N3C[C@@H](O)C[C@@H]3c3cccc(F)c3)nc12)C(F)(F)F [Example 216, 5-((2R,4S)-2-(3-fluorophenyl)-4-hydroxypyrrolidin-1-yl)-N—((S)-1,1,1-trifluoropropan-2-yl)pyrazolo[1,5-a]pyrimidine-3-carboxamide]		3.1	
O=C(NC1(C(=O)O)CC1)c1cnn2ccc(N3CCC[C@@H]3c3cc(F)ccc3F)nc12 [Example 84, (R)-1-(5-(2-(2,5-difluorophenyl)pyrrolidin-1-yl)pyrazolo[1,5-a]pyrimidine-3-carboxamido)cyclopropanecarboxylic acid]	> 1000		
N#CCNC(=O)c1cnn2ccc(N3CCC[C@@H]3c3cc(F)ccc3F)nc12 [Example 39, (R)—N-(cyanomethyl)-5-(2-(2,5-difluorophenyl)pyrrolidin-1-yl)pyrazolo[1,5-a]pyrimidine-3-carboxamide]	> 1000		
CS(=O)(=O)NCCNC(=O)c1cnn2ccc(N3CCC[C@@H]3c3cc(F)ccc3F)nc12 [Example 46, (R)-5-(2-(2,5-difluorophenyl)pyrrolidin-1-yl)-N-(2-(methylsulfonamido)ethyl)pyrazolo[1,5-a]pyrimidine-3-carboxamide]	> 1000		
O=C(N[C@H]1CC[C@@H](O)CC1)c1cnn2ccc(N3CCC[C@@H]3c3cncc(F)c3)nc12 [Example 100, 5-((R)-2-(5-fluoropyridin-3-yl)pyrrolidin-1-yl)-N-((cis)-4-hydroxycyclohexyl)pyrazolo[1,5-a]pyrimidine-3-carboxamide]	> 1000		
CC1(O)CCC(NC(=O)c2cnn3ccc(N4CCC[C@@H]4c4cc(F)ccc4F)nc23)CC1 (single isomer, unassigned; diastereomer 1) [Example 50]			IC50 (Human Jak2 kinase domain; [3]): 418 nM
COc1ncc(F)cc1[C@H]1CCCN1c1ccn2ncc(C(=O)N[C@H]3CC[C@H](O)CC3)c2n1 [Example 140, 5-((R)-2-(5-fluoro-2-methoxypyridin-3-yl)pyrrolidin-1-yl)-N-((trans)-4-hydroxycyclohexyl)pyrazolo[1,5-a]pyrimidine-3-carboxamide]	76.7	0.9	IC50 (Human Jak2 kinase domain; [2]): 76.7 nM; IC50 ([1]; Table 2, read-out: TrkA IC50): 0.9 nM
O=C(N[C@H]1CC[C@H](O)CC1)c1cnn2ccc(N3CCC[C@@H]3c3cncc(F)c3)nc12 [Example 99, 5-((R)-2-(5-fluoropyridin-3-yl)pyrrolidin-1-yl)-N-((trans)-4-hydroxycyclohexyl)pyrazolo[1,5-a]pyrimidine-3-carboxamide]	> 1000	7	
CC1(O)CCC(NC(=O)c2cnn3ccc(N4CCC[C@@H]4c4cc(F)ccc4F)nc23)CC1 (single isomer, unassigned) [Example 51]			IC50 (Human Jak2 kinase domain; [3]): 186 nM
